The list shows a part of the results, in another mix than the full data. Activity calls are given as the source filed them.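 How the source made its calls: active means inhibition above the screen-wide mean plus 3 SD, computed separately per campaign (cut at about 16% in these data); inactive means the rest.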

The test system of this test is Heat shock protein HSP 90 (rabbit reticulocyte lysate; luciferase refolding). The test can be described thus: HSP90 inhibitors, primary screen, cell lysate, luminescence (AID 1789).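 Further: 0% = DMSO wells and 100% = 60 µM geldanamycin wells; inhibitors lower the luminescence because luciferase stays unfolded.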 Particulars: 3 h, at 5.6 µM, stronger effect = higher value.
Turning to `COc1ccc(OP(C)(=O)Nc2ccccc2Br)cc1` (stereo unspecified), the inhibition (as a rule, the drop in the measured response relative to a control, in per cent) was inactive: 1.86%.

Consider `CCN(CC)CCCOC(=O)C(O)(c1ccccc1)C1CCCCC1` (stereo unspecified), for which the inhibition was inactive: 3.36%.

With `CP(=O)(Nc1ccccc1)Oc1ccc(F)cc1` (stereo unspecified), the inhibition was inactive: -3.28%.

As for `O=[N+]([O-])c1cc([N+](=O)[O-])c(OC2CCCCC2O)c([N+](=O)[O-])c1` (stereo unspecified), the inhibition is inactive: 3.21%.

With `CCCCCOc1ccc(NP(C)(=O)Oc2ccc(Cl)cc2Cl)cc1` (stereo unspecified), the inhibition is inactive: -1.99%.

For `CCOC(=O)c1ccc(NP(C)(=O)Oc2ccc(F)cc2)cc1` (stereo unspecified), the inhibition is inactive: 2.39%.

Turning to `COc1ccc(OP(C)(=O)Nc2ccc(SC(F)(F)F)cc2)cc1` (stereo unspecified), the inhibition was inactive: -0.67%.

Turning to `O=C(OC1CN2CCC1CC2)c1ccc([N+](=O)[O-])cc1` (stereo unspecified), the inhibition was inactive: 1.19%.

With `O=C(OCCN1CCN(CCOCc2ccccc2)CC1)C(O)(c1ccccc1)c1ccccc1`, the inhibition is inactive: -0.74%.

Regarding `CP(=O)(Nc1ccccc1F)Oc1ccccc1` (stereo unspecified), the inhibition is inactive: -2.5%.

With `CC(C)c1ccc(OP(C)(=O)Nc2ccc(SC(F)(F)F)cc2)cc1` (stereo unspecified), the inhibition was inactive: -3.34%.

As to `CP(=O)(Nc1ccc2c(c1)OCCO2)Oc1ccccc1` (stereo unspecified), the inhibition is inactive: 3.59%.

Regarding `Cc1ccccc1NP(C)(=O)Nc1ccccc1C`, the inhibition was inactive: -0.19%.

In the case of `CP(=O)(Nc1ccc(SC(F)(F)F)cc1)Oc1ccc(F)cc1` (stereo unspecified), the inhibition is inactive: 4.53%.

In the case of `CCOP(C)(=S)SCC(=O)NC(C)(CC)C(=O)O` (stereo unspecified), the inhibition is inactive: 1.06%.

On to `O=[N+]([O-])c1ccc(OP2(=O)COCCO2)cc1` (stereo unspecified), for which the inhibition is inactive: -1.15%.

As for `Cc1cc(-c2cccc3ccccc23)c(C)cn1.O=[N+]([O-])c1cc([N+](=O)[O-])c(O)c([N+](=O)[O-])c1`, the inhibition was inactive: 0.45%.

Turning to `O=[N+]([O-])c1cc([N+](=O)[O-])c(NCC2CCS(=O)(=O)C2)c([N+](=O)[O-])c1` (stereo unspecified), the inhibition is inactive: 0.98%.

Regarding `COc1ccc(OP(C)(=O)Nc2cccc(Br)c2)cc1` (stereo unspecified), the inhibition was inactive: -1.77%.

On to `CN(C)CCOC(=O)C(O)(c1ccccc1)C1CCCCC1` (stereo unspecified), for which the inhibition is inactive: 3.94%.

`COc1ccc(NP(C)(=O)Oc2ccccc2OC)cc1` (stereo unspecified): the inhibition was inactive: 4.02%.

Source of the values: PubChem BioAssay AID1789 (The Scripps Research Institute Molecular Screening Center, 2009).
